## Antibody variant affinities, Ab-14 heavy chain, assay B

Reference: Li et al. 2023, doi:10.1038/s41467-023-39022-2. File: FLAb, binding data.

Antigen: PDVDLGDISGINAS, a 14-residue peptide of the SARS-CoV-2 spike HR2 region.

Ab-14 is the parent antibody, in scFv form: VH, then three GGGGS repeats, then VL. The light chain is unchanged in all variants.
VH: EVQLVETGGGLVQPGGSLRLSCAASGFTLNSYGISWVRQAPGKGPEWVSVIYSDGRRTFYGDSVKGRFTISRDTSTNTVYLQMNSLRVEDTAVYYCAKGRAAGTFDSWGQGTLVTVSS
VL: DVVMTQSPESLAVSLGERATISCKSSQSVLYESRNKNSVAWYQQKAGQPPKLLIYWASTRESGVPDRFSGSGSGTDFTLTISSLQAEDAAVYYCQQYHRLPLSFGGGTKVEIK

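The starting antibody came from a phage panning campaign against this peptide. Designed CDR sequences, proposed from the first random library and measured here. Several design methods are mixed in this list. AlphaSeq pools MATa yeast showing the antibodies with MATalpha yeast showing the peptide. The frequency of each diploid, read from paired DNA barcodes, reflects how well the two displayed proteins bind. The ratio of observed to expected reads was calibrated, replicate by replicate, on BCL2-family standards whose Kd was known from biolayer interferometry. Mating was done six times.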

Variants are written as CDR1, CDR2 and CDR3 of the heavy chain (limits as in the source). Parent: GFTLNSYGIS, VIYSDGRRTFYGDSVK, GRAAGTFDS.
Values are log10 of the apparent Kd in nM; lower means stronger binding.
Replicates are averaged; those with no signal do not enter the mean.
"no signal" marks a missing value. The strain was present, yet no cells mated with the target were sequenced in any replicate, which points to weak or no binding.
The parent sequence was in this pool as ten entries: three were never detected, three once, and four in most replicates, with averages from 0.34 to 2.37.
Background: pairings of all heavy chain designs with three empty control strains gave a value in 1% of cases (median 2.08, 5th percentile 0.84). Values in that range, when seen in few replicates, are hard to tell from nonspecific mating.
In the paper, a design with two or fewer of six values counts as a poor binder.
A sequence measured in both rounds can read differently, since the two assays cover different ranges.

CDR-H1,CDR-H2,CDR-H3,"mean, log10 nM",seen in
GFDLNEYGIS,VIYADGKRTAYADSVK,GEAAGTFDS,-0.28,6/6
GFWLNDYGIS,VIYADGRRTFYGDSVK,GSAAGTFDS,0.06,6/6
GLTLNSYGIS,VIYADGMRTFYGDSVK,GRAAGPFDS,2.87,1/6
GFQLNSYGIS,VIYADGRRTFYGDSVK,GRAADTNDS,no signal,0/6
GFDLNEYGIS,VIYADGRRTAYTDSVK,GENAGTFDV,-0.06,5/6
GFDLNEYGIS,VIYADGRRTFYADSVK,GNNAGTFDE,-0.39,6/6
GFDLNSYGIS,VIYSDGRRTFYQDKVK,GQAAGTFDS,-0.02,6/6
GFDLNEYGIS,VIYADGQRTFYADSVK,GNQAGTFIS,1.07,6/6
GFDLGEYGIS,VIYADGMRSAYTDKVK,GAGANIVTH,no signal,0/6
GFTLNSYGIS,VIYSDGRRTFYADSVK,GVAAGTFDS,0.80,6/6
RFDLNSYGIS,VIYSDGLRTFYGDSVK,HRAAGTFDS,no signal,0/6
GFDLNEYGIS,VIYADGVRKAYADSVK,GENAGTFDI,-0.58,6/6
GFSLNDYGIS,VIYSDGRRTQYIDSVK,GRAAGTFDS,0.81,6/6
GFTLEKYGIS,VIYSDGRRTFYGDSVK,GRAAGTFMS,0.84,6/6
GFWLNDYGIS,VIYSDGRRTFYKDSVK,GQAAGTFDS,2.40,4/6
GFELNSYGIS,VIYSDGRRTFYGDSVK,GHAAGTFDT,0.94,6/6
GFNLNEYGIS,VIYADGRRTFYTDDVK,GENAGTFDL,-0.85,6/6
GFTLNSYGIS,VSYSDKRRSFYSDSVK,GRAGGTFDS,no signal,0/6
GFDLNEYGIS,VIYADGSRTVYADSVK,GENAGTFDI,0.62,6/6
GFDLNEYGIS,VIYADGKRTAYADSVK,GTNAGTFDT,-0.29,6/6
GFQLNEYGIS,VIYSDGRRTFYGDSVK,GEAAGTFDS,0.95,6/6
GFDLNEYGIS,VIYADGVRTFYVDSVK,GETAGTFEM,-0.37,6/6
GFNLNSYGIS,VIYSDGRRTFYGDSVK,GHVAGTFDS,0.63,6/6
GFSLNSYGIS,VIYSDGRRTFYTDSVK,GKTAGTFDS,0.54,6/6

Continued, with the values leading:

"mean, log10 nM",seen in,CDR-H1,CDR-H2,CDR-H3
0.64,6/6,GFNLNSYGIS,VIYSDGRRTFYTDSVK,GLNAGTFDS
0.82,1/6,GFVLNSYGIS,VIYSDGRRTFYGDSVK,GEAAGTFDS
3.37,1/6,GFTLNQYGIS,VIYADGRRTFYGDSVE,RRAMGTFDQ
no signal,0/6,GFPLDEYGIS,VIYADGVRKAYANSVK,GQQTFFIRT
0.94,6/6,GFELNSYGIS,VIYSDGRRTFYADSVK,GQAAGTFDN
no signal,0/6,GKDLEEYGIS,VIYADGHRAAYIDSVK,GIHMDVMTV
no signal,0/6,GFTLNEYGIS,VIYSDGRRTFYGDSVK,GREAGTFDE
-0.37,6/6,GFDLNEYGIS,VIYADGVRTFYADSVK,GKIAGTFNV
-0.24,6/6,GFDLDEYGIS,VIYADGSRTAYSDSVK,GNTAGTFDV
1.12,6/6,GFDINDYGIS,VIYADGLRTSYSTNFK,GIYAGTFTS
1.16,6/6,GFQLNSYGIS,VIYSDGRRTFYSDQVK,GKAAGTFDS
1.79,4/6,GFDLNSYGIS,VIYSDGRRTFYGDSVK,GRAAGTFES
0.18,6/6,GFSLNSYGIS,VIYSDGRRTFYADSVK,GKAAGTFDA
no signal,0/6,GFDLKEQGIS,VIYADGMRTGYTDKVK,GQNSNGFKM
no signal,0/6,GYSLDDYGIS,VIYADGKRKSYAEDVK,GNNGGSFMN
no signal,0/6,GFTLCEYGIS,VIYSDLRRTFPTDSVK,GRFAGTFDS
0.54,2/6,GFTLNSYGIS,VIYSDGRRTFYDDSVK,GRAAGTFDQ
1.76,6/6,GFTLNSYGIS,VIYSDGKRTFYGDSVK,GKAAGTFDT
0.87,6/6,GFGLNDYGIS,VIYSDGRRTYYGDSVK,GRAAGTFDS
no signal,0/6,GFTLNEYGIS,VIYSDGRRTFYTDSVK,GRMAGTFTS
no signal,0/6,GFHLNSYGIS,VDYSDGLRTFYSDSVK,GRAAGRFYS
-0.12,6/6,GFDLNEYGIS,VIYADGMRTAYSDSVK,GANAGTFDQ
no signal,0/6,GFSLNQYGIS,VIYSDGRRTFYGDSVK,GRAAVTFDQ
no signal,0/6,GYDIEEYGIS,VIYADGKRNAYANMVK,GKWAGAFVD
1.26,1/6,KFSLNSYGIS,VIYSDGRRTFYADSVK,GRTAGTFDS

The 3 strongest on average among those seen in every replicate, once more:

| CDR-H1 | CDR-H2 | CDR-H3 | mean, log10 nM | seen in |
|---|---|---|---|---|
| GFNLNEYGIS | VIYADGRRTFYTDDVK | GENAGTFDL | -0.85 | 6/6 |
| GFDLNEYGIS | VIYADGVRKAYADSVK | GENAGTFDI | -0.58 | 6/6 |
| GFDLNEYGIS | VIYADGRRTFYADSVK | GNNAGTFDE | -0.39 | 6/6 |